For orientation: Ki means a dissociation constant, usually derived from enzyme kinetics or from competition with a known ligand.

This note sets out measurements from patent publication US6759384B1, “Factor Xa inhibitors” (Aventis Pharmaceuticals Inc., priority 1994, dated 2004).

Assay type in all cases: biochemical
Assay [1] has as its target T1, bovine pancreatic trypsin (Bos taurus, UniProt P00760).
T1 construct: purchased Sigma Type XIII, TPCK treated; host or cells: bovine pancreas
T1 sequence (P00760 24-246): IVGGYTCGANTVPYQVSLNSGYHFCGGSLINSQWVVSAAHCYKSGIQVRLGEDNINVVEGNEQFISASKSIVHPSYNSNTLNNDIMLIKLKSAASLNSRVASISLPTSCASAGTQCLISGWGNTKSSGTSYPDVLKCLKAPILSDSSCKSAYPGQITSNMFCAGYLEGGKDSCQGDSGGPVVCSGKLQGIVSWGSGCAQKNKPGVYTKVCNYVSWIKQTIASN
Nature of the assay: Trypsin chromogenic assay. Particulars: Table 2; * no significant inhibition at the highest concentration tested. The protocol: (§1) The ability of a compound of the invention to inhibit factor Xa, thrombin, plasmin, elastase and trypsin was assessed by determining the concentration of YIR peptide that inhibits enzyme activity by 50% (IC50). Purified enzymes were used in chromogenic assays. To determine the inhibition constant, the IC50 value was corrected for competition with substrate using the formula:
(§2) Ki=IC50×(1/{1+((substrate concentration)/substrate Km)})
TBS-P buffer containing 10 mM CaCl2 was used for this assay. The IC50 determination was determined as described in Example XXXVII.a., except that the substrate was BAPNA (Benzoyl-L-Arg-p-nitroanilide; Sigma Chemical Co.; St. Louis Mo.) and the enzyme was bovine pancreatic trypsin (Type XIII, TPCK treated; Sigma). The enzyme concentration was 50 nM and the substrate concentration was 300 μM.

In a further assay the target is T2, human thrombin (Homo sapiens, UniProt P00734).
T2 construct: purchased Enzyme Research Laboratories, Inc; South Bend Ind
Nature of the assay: Thrombin chromogenic assay. Particulars: Table 2. Here is the method:
as §1, §2
TBS-P buffer was used for this assay. The IC50 was determined as described in Example XXXVII.a., except that the substrate was S-2366 (L-PyroGlu-L-Pro-L-Arg-p-nitroanilide; Kabi) and the enzyme was human thrombin (Enzyme Research Laboratories, Inc.; South Bend Ind.). The enzyme concentration was 1 nM and substrate concentration was 175 μM.

For assay [2], the target named is T3, human neutrophil elastase (Homo sapiens, UniProt P08246).
T3 construct: purchased Athens Research and Technology, Inc; Athens Ga
T3 sequence (P08246 30-247 limits assumed): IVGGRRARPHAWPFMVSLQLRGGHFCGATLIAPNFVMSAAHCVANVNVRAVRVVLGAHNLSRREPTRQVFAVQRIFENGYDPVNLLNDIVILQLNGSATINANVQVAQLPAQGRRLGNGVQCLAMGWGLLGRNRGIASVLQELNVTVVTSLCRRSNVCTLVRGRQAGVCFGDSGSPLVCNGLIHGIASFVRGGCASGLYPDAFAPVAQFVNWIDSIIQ
The assay can be described thus: Elastase chromogenic assay. As to conditions: Table 2. The protocol:
as §1, §2
Tris-Cl, pH 7.4, 300 mM NaCl, 2% (v/v) N-methyl-pyrrolidone, 0.01% (w/v) NaN3 buffer was used for this assay. The IC50 was determined as described in Example XXXVII.a., except that the substrate was succinyl-Ala-Ala-Ala-p-nitroanilide (Calbiochem-Nova Biochem Corp.; San Diego Calif.) and the enzyme was human neutrophil elastase (Athens Research and Technology, Inc.; Athens Ga.). The enzyme concentration was 75 nM and the substrate concentration was 600 μM.

For a further assay, the target named is T4, human plasmin (Homo sapiens, UniProt P00747).
T4 construct: the enzyme was human plasmin (Kabi); purchased Kabi
The assay can be described thus: Plasmin chromogenic assay. Particulars: Table 2. Here is the method:
as §1, §2
TBS-P buffer was used for this assay. The IC50 was determined as described in Example XXXVII.a., except that the substrate was S-2251 ((D)-Val-L-Leu-L-Lys-p-nitroanilide; Kabi) and the enzyme was human plasmin (Kabi). The enzyme concentration was 5 nM and the substrate concentration was 300 uM.

Turning to `CC[C@H](C)[C@H](NC(=O)[C@H](Cc1ccc(O)cc1)NC(C)=O)C(=O)N[C@@H](CCCNC(=N)N)C(=O)N[C@@H](CC(C)C)C(=O)N1CCC[C@H]1C(N)=O` [Ac-Y-I-R-L-P, Ac-Tyr-Ile-Arg-Leu-Pro-NH2], the Ki was above 200 µM in assay [1], above 200 µM at human thrombin, above 100 µM in assay [2] and above 200 µM at human plasmin.
